High-throughput results (PubChem)
An excerpt weighted towards active compounds, which were near 16% of everything screened.
TDP1 cell CPT – DT40-hTDP1 cell growth loss with CPT | chicken DT40 Tdp1-/-;hTDP1 cells + 20 nM CPT, ATP luminescence, 48 h | Potency, µM (top dose mostly 46.2 µM), for inactives: at the top dose activity change, negative = growth inhibition, most hits filed as inhibitors | actives 12% (n = 420,000) | AID 686979; also: potency is read from the fitted curve at half-maximal effect; % is scaled to controls: 0 for no effect and ±100 for the full control effect; nearly all actives have a fitted effect of over 55% in size
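Chicken DT40 Tdp1-/- cells stably complemented with human TDP1 were seeded at 400 cells/well in medium containing 20 nM camptothecin, exposed to pin-transferred compounds, and grown at 37 °C for at least 48 hr. Viability was read as ATP luminescence.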
uPA surface inh – inhibitors of cell surface uPA generation | cell surface uPA generation assay, qHTS | Potency, µM (top dose mostly 38.3 µM), inactives show at the top dose activity change, negative = inhibition, usual class: inhibitors | actives 0.31% (n = 330,000); active = well fitted inhibition curve with a large enough effect; inconclusive = small, poorly fitted or top-dose-only effect; inactive = no such curve, though single readings can be large or run the other way; tested in mouse RAW 264.7 cells; also: potency is read from the fitted curve at half-maximal effect; % is scaled to controls: 0 for no effect and ±100 for the full control effect; nearly all actives have a fitted effect of over 55% in size
DT40 TDP1 no CPT – qHTS for Inhibitors of human tyrosyl-DNA phosphodiesterase 1 (TDP1): qHTS in cells in absence of CPT | DT40 Tdp1-/- hTDP1 cells, no CPT, ATP luminescence, 48 h | Potency, µM (highest dose often 46.2 µM), without a hit: at the top dose activity change, negative = growth inhibition, most hits filed as inhibitors | actives 15% (n = 420,000) | AID 686978, 2013; also: potency is read from the fitted curve at half-maximal effect; % is scaled to controls: 0 for no effect and ±100 for the full control effect; nearly all actives have a fitted effect of over 55% in size
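Compound effects on proliferation are scored in DT40 Tdp1-/-;hTDP1 cells in the absence of CPT. ATP levels (CellTiter-Glo luminescence) are recorded after a ≥48 hr, 37 °C incubation.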
miR-21 reporter – miR-21 reporter, rising signal | HeLa miR-21 FLuc reporter, luciferase, 48 h | Potency, µM (doses to about 38.3 µM), inactives show at the top dose reporter change, positive = more light | 340,000 tested, under 10 active | AID 2288; active = well fitted rising curve with a large enough effect; inconclusive = small, poorly fitted or top-dose-only effect; inactive = no such curve, though single readings can be large or run the other way;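 note: % of control where 0% means no effect; miR-21 action dims this reporter so a rising signal means less miR-21 action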
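HeLa miR-21-FLuc reporter line, endogenous miR-21; 2000 cells/well in DMEM/10% FBS; compound titration up to ~40uM final, 48 h, 37 degree Celsius; luciferase detection reagent, 15 min lysis, CCD luminescence.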
TDP1 inh – blocks human tyrosyl-DNA phosphodiesterase 1. actives 0.28% (n = 350,000). Potency, µM (highest dose often 130 µM), without a hit: at the highest dose activity change, negative = inhibition, most hits filed as inhibitors. recombinant TDP1, AlphaScreen DNA substrate cleavage. AID 485290; also: potency is read from the fitted curve at half-maximal effect; % is scaled to controls: 0 for no effect and ±100 for the full control effect; nearly all actives have a fitted effect of over 40% in size
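Recombinant E. coli-expressed Tdp1 (1 nM) preincubated with compound 15 min at RT, then 5'-biotin/3'-phosphotyrosine-FITC DNA substrate (15 nM) added for 5 min. AlphaScreen beads (10 ug/ml) added, 10 min RT; tyrosine-FITC cleavage read as signal loss.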
An asterisk follows results filed as active; ? = inconclusive; / = no result given; [ ] = remark or other dose. Unless noted, calls follow the shape of the dose curve; as a rule, active = well fitted curve in the direction sought with a large enough effect; inconclusive = small, poorly fitted or top-dose-only effect, or another doubt; inactive = no such curve, though single readings can be large; an effect the other way counts as inactive or inconclusive.

1: Cc1ccsc1C(=O)C1CCCN(Cc2cc(C(C)C)n[nH]2)C1 (stereo unspecified)
2: Fc1ccc(CCNCc2ccccc2Cl)cc1
3: CCOc1ccc(Cl)cc1CNCCc1ccc(F)cc1
4: CC1(C)C(C(=O)N2CCN(c3ccc(Cl)cc3)CC2)C1(C)C
5: CCCC[C@@H](C)C[C@@H](C)C(=O)N(C)[C@@H](CC(C)C)C(=O)N[C@H](C(=O)N(C)[C@H](C(=O)N1C[C@@H](O)C[C@H]1C(=O)N1C(=O)C=C[C@@H]1C)C(C)C)C(C)OC(C)=O (stereo partly specified)
6: Cc1ccc(-n2c(O)c(/C=N/N3CCCCC3c3cccnc3)c(=O)[nH]c2=S)cc1 (stereo unspecified)
7: COC(=O)C1=C(c2c(C)noc2C)C[C@@H]2CC[C@H]1N2C(=O)NC(C)C
8: CCN(CC)c1ccc(CNCCc2ccccc2F)cc1
Compound | 1 | 2 | 3 | 4 | 5 | 6 | 7 | 8
uPA surface inh | -1% | 1% | -3% | -4% | -83% | 10% | 2% | 5%
TDP1 cell CPT | 6% | -28% | 21µM* | ? | 0.037µM* | -5% | 6% | ?
DT40 TDP1 no CPT | ? | -24% | 16µM* | 18µM* | 0.0065µM* | 23% | 15% | 16µM*
miR-21 reporter | 5% | -18% | -8% | -6% | / | -9% | / | 20%
TDP1 inh | 6% | -2% | 0% | / | 0% | 5% | 0% | 5%

9: CC1=C(C)CC2(CC1)C(=O)NC(=O)NC2=O
10: CCS(=O)(=O)Nc1cccc(C(=C2CCCCC2)c2cnc[nH]2)c1
11: COc1cccc(C2(C#N)CCN(C)CC2)c1
12: O=C(NCc1cccnc1)C1CCN(S(=O)(=O)c2cc([N+](=O)[O-])ccc2Cl)CC1
13: O=C(NCc1cccnc1)Nc1ccc([N+](=O)[O-])cc1
14: CCOc1ccc2nc(NC(=O)c3cccn(Cc4ccccc4)c3=O)sc2c1
15: CCCCCNC(=O)C(c1ccncc1)n1c(=O)c(-c2cc3ccccc3[nH]2)nc2ccccc21 (stereo unspecified)
16: CO[C@H]1C[C@H](O[C@H]2[C@H](C)O[C@@H](O[C@@H]3/C(C)=C/C[C@@H]4C[C@@H](C[C@]5(C=C[C@H](C)[C@@H](C6CCCCC6)O5)O4)OC(=O)[C@@H]4C=C(C)[C@@H](O)[C@H]5OC/C(=C\C=C\[C@@H]3C)[C@]54O)C[C@@H]2OC)O[C@@H](C)[C@@H]1O
Compound | 9 | 10 | 11 | 12 | 13 | 14 | 15 | 16
uPA surface inh | 2% | 11% | 0% | -2% | 10% | / | / | /
TDP1 cell CPT | 0% | ? | 8% | ? | ? | ? | 16µM* | 2.7µM*
DT40 TDP1 no CPT | 2% | 21µM* | 13% | 18µM* | -22% | ? | ? | 4.7µM*
miR-21 reporter | / | / | -6% | / | 3% | -2% | / | /
TDP1 inh | / | 11%[56.1 µM] | 1% | 0% | 3% | 3% | / | /

Next section, overlapping the part above by 4 compounds.
13: O=C(NCc1cccnc1)Nc1ccc([N+](=O)[O-])cc1
14: CCOc1ccc2nc(NC(=O)c3cccn(Cc4ccccc4)c3=O)sc2c1
15: CCCCCNC(=O)C(c1ccncc1)n1c(=O)c(-c2cc3ccccc3[nH]2)nc2ccccc21 (stereo unspecified)
16: CO[C@H]1C[C@H](O[C@H]2[C@H](C)O[C@@H](O[C@@H]3/C(C)=C/C[C@@H]4C[C@@H](C[C@]5(C=C[C@H](C)[C@@H](C6CCCCC6)O5)O4)OC(=O)[C@@H]4C=C(C)[C@@H](O)[C@H]5OC/C(=C\C=C\[C@@H]3C)[C@]54O)C[C@@H]2OC)O[C@@H](C)[C@@H]1O
17: CCOC(=O)C(O)(c1ccc(N=c2ccccn2C)cc1)C(F)(F)F (stereo unspecified)
18: CCn1c(O)c(C=Nc2ccc(S(N)(=O)=O)cc2)c(=O)n(CC)c1=S
19: NS(=O)(=O)c1ccc(N=Cc2c(O)n(C3CCCCC3)c(=O)n(C3CCCCC3)c2=O)cc1
20: COc1ccc(-c2nn(CCC#N)cc2C(=O)Nc2ccc(C(C)=O)cc2)cc1[N+](=O)[O-]
21: BrCC(Br)(Br)Br
22: COc1ccccc1N1CCN(C(=O)CCC(=O)Nc2nnc(CC(C)C)s2)CC1
23: COc1cc(Cc2cnc(N)nc2N)cc(OC)c1OC
24: COC(=O)C1=C(c2ccc(C(C)=O)cc2)C[C@@H]2CC[C@H]1N2C(=O)NCCO
Compound | 13 | 14 | 15 | 16 | 17 | 18 | 19 | 20 | 21 | 22 | 23 | 24
uPA surface inh | 10% | / | / | / | -1% | 6% | -3% | -5% | 13% | 4% | 17% | -2%
TDP1 cell CPT | ? | ? | 16µM* | 2.7µM* | 6% | ? | 15µM* | -2% | 9.2µM* | ? | -10% | 6%
DT40 TDP1 no CPT | -22% | ? | ? | 4.7µM* | 3% | ? | 16µM* | -22% | ? | -18% | ? | 0%
miR-21 reporter | 3% | -2% | / | / | 1% | 11% | ? | -14% | / | 3% | 2% | /
TDP1 inh | 3% | 3% | / | / | / | 5% | 5% | / | 0% | 5% | 9% | 1%

25: COC(=O)C1=C(c2cccc(OCc3ccccc3)c2)C[C@@H]2CC[C@H]1N2C(=O)NCc1cccc(F)c1
26: COC(=O)C1=C(c2ccc(C(C)=O)cc2)C[C@@H]2CC[C@H]1N2C(=O)NCCOc1ccccc1Cl
27: COC(=O)C1=C(c2cccc(OCc3ccccc3)c2)C[C@@H]2CC[C@H]1N2C(=O)NCCOc1ccccc1
28: COC(=O)C1=C(c2ccc(OC)c(OC)c2)C[C@@H]2CC[C@H]1N2C(=O)NCCOc1ccccc1
29: COC(=O)C1=C(c2cccc(OCc3ccccc3)c2)C[C@@H]2CC[C@H]1N2C(=O)NCCc1ccc(F)cc1
30: COC(=O)C1=C(c2cccc(C#N)c2)C[C@@H]2CC[C@H]1N2C(=O)NCCOc1ccccc1Cl
31: Cc1ccc2c(c1)N(N=O)CCC2
32: CC[N+](CC)(CCCNC1=CC(=O)C(NCCC[N+](CC)(CC)Cc2ccccc2)=CC1=O)Cc1ccccc1
Compound | 25 | 26 | 27 | 28 | 29 | 30 | 31 | 32
uPA surface inh | ? | 7% | ? | 15% | ? | 13% | 2% | /
TDP1 cell CPT | ? | 23µM* | ? | ? | ? | 18µM* | -11% | -1%
DT40 TDP1 no CPT | ? | ? | 21µM* | -22% | 16µM* | 16µM* | 4% | -1%
miR-21 reporter | / | / | / | / | / | / | 0% | /
TDP1 inh | 0% | 0% | 0% | -1% | 1% | 0% | 4% | 6%

33: Cc1cccc(OP(=O)(Nc2ccc(F)cc2)Oc2cccc(C)c2)c1
34: CC(=O)OCC1=C[C@H]2[C@@H]3C(C)(C)[C@]3(OC(=O)Cc3ccccc3)C[C@@H](C)[C@]2(O)[C@@H]2C=C(C)C(=O)[C@@]2(O)C1
35: COC(=O)C1=C(c2cccc(OCc3ccccc3)c2)C[C@@H]2CC[C@H]1N2C(=O)NCCOc1ccccc1Cl
36: CC(Cc1ccc(C(C)(C)C)cc1)CN1CCCCC1 (stereo unspecified)
37: Cc1ccc2c(c1)=C/C(=C\c1c(O)[nH]c(=S)[nH]c1=O)C(=O)N=2
38: Cc1cccc(C)c1-n1nnnc1C(c1cccc2ccccc12)N1CCC2(CC1)C(=O)NCN2c1ccccc1 (stereo unspecified)
39: O=C1NCN(c2ccccc2)C12CCN(C(c1cccc3ccccc13)c1nnnn1C1CCCCC1)CC2 (stereo unspecified)
40: O=C1NCN(c2ccccc2)C12CCN(C(c1cccc3ccccc13)c1nnnn1C1CCCC1)CC2 (stereo unspecified)
41: C/C(=N\N1CCCCC1c1cccnc1)c1c(O)n(C2CCCCC2)c(=S)[nH]c1=O (stereo unspecified)
42: NC(CP(=O)(O)O)C(=O)O (stereo unspecified)
Compound | 33 | 34 | 35 | 36 | 37 | 38 | 39 | 40 | 41 | 42
uPA surface inh | 6% | / | ? | / | / | / | / | / | -8% | /
TDP1 cell CPT | -28% | / | ? | / | / | 18µM* | 23µM* | ? | ? | -2%
DT40 TDP1 no CPT | ? | / | 23µM* | / | / | 12µM* | ? | 16µM* | ? | -4%
miR-21 reporter | 1% | / | / | / | -4% | / | / | / | -7% | /
TDP1 inh | 0% | 8% | 0% | 3% | ? | / | / | / | 3% | 13%[56.1 µM]
